For 1 compound, Emax results are on record in patent US12540138B2, “Substituted oxaspiro[4.5]decanes as MOR receptor agonists” (priority 2020, dated 2026).

Protein sequences, listed by entry. Tags and fused reporters are not part of them.
UniProt P35372, whole entry: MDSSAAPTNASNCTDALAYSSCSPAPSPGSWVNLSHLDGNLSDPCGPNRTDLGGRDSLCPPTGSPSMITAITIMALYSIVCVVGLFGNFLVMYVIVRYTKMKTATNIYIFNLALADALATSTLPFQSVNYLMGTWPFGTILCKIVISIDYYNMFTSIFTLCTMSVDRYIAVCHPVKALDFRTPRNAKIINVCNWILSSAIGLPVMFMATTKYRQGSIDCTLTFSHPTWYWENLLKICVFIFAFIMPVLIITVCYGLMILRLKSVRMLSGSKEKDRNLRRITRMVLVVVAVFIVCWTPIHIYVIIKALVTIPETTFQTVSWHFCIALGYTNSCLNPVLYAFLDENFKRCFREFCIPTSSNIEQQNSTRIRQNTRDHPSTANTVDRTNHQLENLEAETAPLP

Molecules are shown by their SMILES.

The assay deals with MOR receptor (PathHunter CHO-K1 OPRM1 β-Arrestin Cell Line) (Homo sapiens, UniProt P35372). Put plainly: cell-based. Particulars: read-out: β-arrestin Emax (%), Morphine was 100%.

On to `CC(C)[C@H]1C[C@@H](NCC[C@@]2(c3ccccn3)CCOC3(CCCC3)C2)c2ccnn21` [Compound H-7b, (4R,6R)-6-isopropyl-N-(2-((R)-9-(pyridin-2-yl)-6-oxaspiro[4.5]decan-9-yl)ethyl)-5,6-dihydro-4H-pyrrolo[1,2-b]pyrazol-4-amine], for which the Emax came to 15%.

By Emax is commonly meant the maximal effect, on the per cent scale that the assay sets.
